Experimental data as given in PubChem BioAssay AID1347120 (National Center for Advancing Translational Sciences (NCATS), 2019).
This is a selection; strong and weak results do not stand in their true shares. Records with an inconclusive call do not appear. Some structures show a salt or complex split into parts, the way the source records it. Active and inactive are the calls of the source. Calls follow the shape of the dose curve; as a rule, active = well fitted activation curve with a large enough effect; inconclusive = small, poorly fitted or top-dose-only effect; inactive = no such curve, though single readings can be large or run the other way.

Assay: qHTS for Suppressors of FUS Proteinopathy: Primary screen using FUS-linked yeast assay;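 also: plate controls were DMSO vehicle for no effect and reference control for full effect; nearly all actives have a fitted effect of over 55% in size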
Details: S. cerevisiae FUS-expressing, OD600, 24 h; at 76.6 µM (top of the series)
Text: Several widespread neurodegenerative diseases, including Alzheimer disease, Huntington disease, Frontotemporal Lobar Degeneration (FTLD) and Amyotrophic Lateral Sclerosis (ALS), share a common pathological feature, namely accumulation of specific protein aggregates in diseased tissue. These diseases which is associated with protein misfolding (proteinopathies) have become increasingly problematic as the population ages and life expectancies are extended. Most proteinopathies are currently incurable, a situation confounded by the fact that the basis of neurodegeneration is generally poorly understood. There exists urgent and significant need to find therapeutics that can inhibit the toxicity associated with protein aggregation. A novel approach to understand the underlying mechanisms of neurodegenerative diseases has recently emerged in which the disease conditions are modeled in the yeast (Saccharomyces cerevisiae), a tractable eukaryotic organism with conserved protein quality control mechanisms. Yeast offers quick and reliable genetic manipulations and can be easily tailored to high-throughput screening (HTS).
For this project, a yeast model of the FUS proteinopathies (a spectrum of neurodegenerative diseases that include ALS and a subtype of FTLD) was generated and employed. The cytoplasmic accumulation of the DNA/RNA-binding protein FUS (also known as TLS) is causative to both familial and sporadic forms of ALS and FTLD. This yeast model recapitulates neuronal pathology by showing severe cytotoxicity associated with cytoplasmic accumulation of FUS aggregates and a specific interaction between FUS and TDP-43, another ALS-associated protein. […] Specifically, the cellular accumulation of misfolded FUS that disrupts RNA homeostasis in both yeast and higher eukaryotes. This model was validated to be suitable for quantitative HTS (qHTS) use for finding genetic or chemical factors that restore growth. […] Identified compounds that inhibits FUS-yeast toxicity is flagged, re-acquired, and validated for further investigation and optimization.
NIH Chemical Genomics Center [NCGC]
NIH Molecular Libraries Probe Production Centers Network [MLPCN]
Assay Submitter (PI): Frank Shewmaker PhD, Uniformed Services University of the Health Sciences
Compound CP55940 was used as the positive control. Column 1 was treated with CP55940 titration from 92uM (final concentration, 1:2 dilution), while Column 2 was treated with top dose 92uM. Columns 3 and 4 were treated with DMSO only as negative control to assess background and noise signal.
Four hundred fifty microliter of cultured yeast (in 20mL rich medium) provided by Dr. Shewmaker lab was incubated at 30C at 99% humidity for 3hr. The culture was then spun down at 4000rpm for 5min and the cell pellet was resuspended in 2mL of Sdmin Media + ALU(330) + 2.5% Raffinose. One hundred microliter of the suspension was added to 900uL of water and OD of the solution was obtained. Twenty mL of responding medium (provided by Shewmaker lab) + 2.5% raffinose was added to ensure cell density of 0.1; the solution was incubated overnight. Working cell solution (FUS-yeast in Sdmi + Sdmi + 1X ALU + 2% galactose media) was prepared (final OD at 0.005) and 3uL was dispensed in a 1536-well Aurora high based clear bottom assay plates. Controls and library compounds (at various final concentrations from 40uM to 0.32uM) were added using a 1536-well pin array using the Kalypsys pin-tool. The plates were then incubated for 24hrs in a cell-culture incubator (30C; 99% humidity). Absorbance at 600nm was then read using the PerkinElmer ViewLux plate reader.
In the case of `Cc1cccc(NC2(C#N)CCN(Cc3ccccc3)CC2)c1`, the growth rescue (activation) is reported as inactive: -8.55%. For `O=C(NCC1(N2CCCCC2)CCCCC1)c1ccc(=O)[nH]c1`, the growth rescue (activation) was inactive: -13.6%. In the case of `CCCCn1nnnc1C(c1cccs1)N1CCC(n2c(=O)[nH]c3ccccc32)CC1` (centres undefined), the growth rescue (activation) is reported as inactive: -13.5%. With `O=C(NCC1(N2CCCCC2)CCCCC1)c1cccs1` the growth rescue (activation) was inactive: 6.88%. In the case of `CCCCn1nnnc1C(CC)N1CCC(n2c(=O)[nH]c3ccccc32)CC1` (centres undefined), the growth rescue (activation) is reported as inactive: -2.5%. For `COc1ccc(C(=O)NCC2(N3CCCCC3)CCCCC2)cc1`, the growth rescue (activation) was inactive: 22.5%. In the case of `CCC(c1nnnn1C1CCCC1)N1CCC(n2c(=O)[nH]c3ccccc32)CC1` (centres undefined), the growth rescue (activation) is reported as inactive: 16.7%. With `CC(C)(C)OC(=O)N1CCC(N(C(=O)c2ccccc2)c2ccc(F)cc2)CC1` the growth rescue (activation) was inactive: -9.63%. In the case of `COc1ccc(C(=O)NCC2(N3CCCCC3)CCCCC2)c(OC)c1OC`, the growth rescue (activation) is reported as inactive: 18.4%. For `O=c1[nH]c2ccccc2n1C1CCN(C(c2cccc3ccccc23)c2nnnn2C2CCCC2)CC1` (centres undefined), the growth rescue (activation) was inactive: 25.6%. With `COc1cc(C(=O)NCC2(N(C)C)CCCCC2)ccc1OC(F)F` the growth rescue (activation) was inactive: 14.8%. For `CCOC(=O)N1CCC(Nc2cccc(C)c2)CC1`, the growth rescue (activation) was inactive: -8.18%. For `O=c1[nH]c2ccccc2n1C1CCN(C(c2ccccc2)c2nnnn2C2CCCCC2)CC1` (centres undefined), the growth rescue (activation) was inactive: 17.2%. With `O=C(NCC1(N2CCCCC2)CCCCC1)c1ccc(F)cc1` the growth rescue (activation) was inactive: -0.403%. With `CCCCn1nnnc1C(c1cc2ccccc2o1)N1CCC(n2c(=O)[nH]c3ccccc32)CC1` (centres undefined) the growth rescue (activation) was inactive: 11.4%. With `O=P1(N(CCCl)CCCl)SCCCS1` the growth rescue (activation) was inactive: 24.4%. With `CCCCOc1ccc(C(=O)NCC2(N3CCOCC3)CCCCC2)cc1` the growth rescue (activation) was inactive: 8.83%. For `COc1ccc(NC2CCN(CCc3ccccc3)CC2)c(OC)c1`, the growth rescue (activation) was inactive: 17.4%. With `CCOC(=O)N1CCC(Nc2ccc(F)cc2)CC1` the growth rescue (activation) was inactive: -12.4%. With `COc1ccccc1C(=O)NCC1(N2CCOCC2)CCCCC1` the growth rescue (activation) was inactive: -11.7%. For `CCOc1ccc(C)cc1CN(CCCl)CCCl`, the growth rescue (activation) was inactive: -0.668%. With `O=C(NCC1(N2CCOCC2)CCCCC1)c1ccc(Cl)cc1` the growth rescue (activation) was inactive: -29.1%. For `CC(C)(C)n1nnnc1C(c1ccccc1)N1CCC(n2c(=O)[nH]c3ccccc32)CC1` (centres undefined), the growth rescue (activation) was inactive: -3%. In the case of `O=C1CCN(Cc2ccccc2)CC1`, the growth rescue (activation) is reported as inactive: 10.8%. For `CC(C)c1ccc(C(=O)NCC2(N3CCOCC3)CCCCC2)cc1`, the growth rescue (activation) was inactive: 8.49%. In the case of `COc1ccc(NC2CCN(C(=O)OC(C)(C)C)CC2)cc1`, the growth rescue (activation) is reported as inactive: 3.81%. For `COc1cc(C(=O)NCC2(N3CCCCC3)CCCCC2)ccc1OC(F)F`, the growth rescue (activation) was inactive: 2.27%. In the case of `O=C(NCC1(N2CCOCC2)CCCCC1)c1cc(=O)[nH]c2ccccc12`, the growth rescue (activation) is reported as inactive: -20.7%. In the case of `CCCOc1cccc(C(=O)NCC2(N3CCOCC3)CCCCC2)c1`, the growth rescue (activation) is reported as inactive: -3.03%. For `O=[N+]([O-])c1cc([N+](=O)[O-])c(NCC2CCS(=O)(=O)C2)c([N+](=O)[O-])c1` (centres undefined), the growth rescue (activation) was inactive: 1.82%. For `O=C(NCC1(N2CCCCC2)CCCCC1)c1cccc([N+](=O)[O-])c1`, the growth rescue (activation) was inactive: -35%. For `CCOc1ccc(C(=O)NCC2(N3CCOCC3)CCCCC2)cc1`, the growth rescue (activation) was inactive: -9.7%. For `CSc1ccc(C(=O)NCC2(N3CCOCC3)CCCCC2)cc1`, the growth rescue (activation) was inactive: 15.5%. With `CCN1CCC(Nc2ccc(Cl)cc2)CC1` the growth rescue (activation) was inactive: 8.71%. For `N#CC1(Nc2ccccc2)CCN(CCc2ccccc2)CC1`, the growth rescue (activation) was inactive: -37.9%. In the case of `O=c1[nH]c2ccccc2n1C1CCN(C(c2ccccc2OC(F)(F)F)c2nnnn2C2CCCC2)CC1` (centres undefined), the growth rescue (activation) is reported as inactive: 10.1%. In the case of `O=C(NCC1(N2CCCCC2)CCCCC1)c1ccc(OC(F)F)cc1`, the growth rescue (activation) is reported as inactive: -2.7%. In the case of `Cc1ccc(C(=O)NCC2(N(C)C)CCCCC2)o1`, the growth rescue (activation) is reported as inactive: -47.2%. With `CCCCOc1ccccc1C(=O)NCC1(N2CCOCC2)CCCCC1` the growth rescue (activation) was inactive: 11.5%. For `CCCOc1ccc(C(=O)NCC2(N(C)C)CCCCC2)cc1OC`, the growth rescue (activation) was inactive: 17.4%. With `O=C(NCC1(N2CCOCC2)CCCCC1)c1ccccc1Br` the growth rescue (activation) was inactive: -0.802%. In the case of `O=[N+]([O-])c1cc([N+](=O)[O-])c(Nc2ccc(Cl)cc2)c([N+](=O)[O-])c1`, the growth rescue (activation) is reported as inactive: 1.45%. For `COc1ccc(C(c2nnnn2C2CCCC2)N2CCC(n3c(=O)[nH]c4ccccc43)CC2)cc1` (centres undefined), the growth rescue (activation) was inactive: 27.6%. With `COc1ccc2c(c1O)-c1c(O)c(OC)cc3c1[C@H](C2)[N+](C)(C)CC3.O=[N+]([O-])c1cc([N+](=O)[O-])c([O-])c([N+](=O)[O-])c1[O-]` the growth rescue (activation) was inactive: 0.554%. For `O=C(OC1CN2CCC1CC2)c1ccc([N+](=O)[O-])cc1` (centres undefined), the growth rescue (activation) was inactive: 13.5%. In the case of `COc1cc(OC)c(C(=O)NCC2(N(C)C)CCCCC2)cc1OC`, the growth rescue (activation) is reported as inactive: 5.55%. With `CCC(c1nnnn1C(C)(C)C)N1CCC(n2c(=O)[nH]c3ccccc32)CC1` (centres undefined) the growth rescue (activation) was inactive: 4.97%. With `O=C(NCC1(N2CCOCC2)CCCCC1)c1cc(F)c(F)cc1Cl` the growth rescue (activation) was inactive: -28.4%. For `CCN(CC)CCCNc1ccccc1[N+](=O)[O-].O=[N+]([O-])c1cc([N+](=O)[O-])c(O)c([N+](=O)[O-])c1`, the growth rescue (activation) was inactive: -13.7%. With `COC(=O)C1(Nc2ccccc2)CCN(Cc2ccccc2)CC1` the growth rescue (activation) was inactive: -12.8%. With `COc1ccc(CN(CCCl)CCCl)cc1Cl` the growth rescue (activation) was inactive: 25.8%. For `O=[N+]([O-])c1cc([N+](=O)[O-])c(OC2CCCCC2O)c([N+](=O)[O-])c1` (centres undefined), the growth rescue (activation) was inactive: 27.1%. For `CN(C)c1cccc(C(=O)NCC2(N3CCCCC3)CCCCC2)c1`, the growth rescue (activation) was inactive: -1.42%. In the case of `CC(C)c1ccc(NC2CCN(C(=O)OC(C)(C)C)CC2)cc1`, the growth rescue (activation) is reported as inactive: 23.8%.
